Laboratory results as given in ChEMBL document CHEMBL4004807 (J Med Chem, 2017).

Amino acid sequences for entries named in this document (tags omitted). A change or cut given only in a name is not applied to a line headed by its entry.
UniProt P43119: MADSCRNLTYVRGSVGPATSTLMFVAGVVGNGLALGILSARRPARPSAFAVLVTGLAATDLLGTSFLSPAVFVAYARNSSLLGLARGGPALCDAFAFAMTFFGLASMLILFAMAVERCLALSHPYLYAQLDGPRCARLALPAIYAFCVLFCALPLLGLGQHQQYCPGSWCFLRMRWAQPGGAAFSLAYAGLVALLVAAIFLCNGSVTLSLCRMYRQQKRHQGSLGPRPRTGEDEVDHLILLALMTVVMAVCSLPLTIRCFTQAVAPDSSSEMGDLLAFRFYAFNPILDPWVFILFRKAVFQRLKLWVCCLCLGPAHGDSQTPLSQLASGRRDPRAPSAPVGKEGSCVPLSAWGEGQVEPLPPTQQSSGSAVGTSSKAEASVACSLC

Target: Prostacyclin receptor (Homo sapiens, UniProt P43119)
Assay: Agonist activity at IP receptor in PAH patient-derived primary pulmonary arterial smooth muscle cells assessed as induction of cAMP levels after 1 hr by HTRF method
Type: functional

Q: How did the Activity turn out when `O=C(O)COC[C@H]1CC[C@H](COC(=O)N(c2ccccc2)c2ccc(Cl)cc2)CC1` was run?
A: Active

The source made the active and inactive calls. The calls are words filed in the database; no cut-off is given here.
